Data on two molecules can be found in patent US5502037A, “Pro-cytotoxic drug conjugates for anticancer therapy” (priority 1993, dated 1996).

Data set [1] concerns mouse Yoshida ascites sarcoma cells. The following applies: cited from earlier work; for In vitro activities: Cytotoxicity: cu = cytostatic units, Yoshida ascites sarcoma cells, Brock, 1976.
The next data set concerns Yoshida ascites sarcoma. The following applies: cited from earlier work; for In vivo activities: CD50: curative dose.
The conditions of data set [2]: cited from earlier work.
Data set [3] relates to PC12 pheochromocytoma cells. Kind of data set: Cytotoxicity of the individual components, parallel experiments. To be noted: CPA 1 μM, 25 μM, 50 nM.
[4] abbreviates: Yoshida ascites sarcoma in rat, Brock, 1976.

With `O=P1(N(CCCl)CCCl)NC(O)CCO1` (stereo not shown), in data set [1], the “In vitro activities: Cytotoxicity” value is on record as 63 CU/μmol. For the same molecule, in the data set on Yoshida ascites sarcoma (setting [4]), the “In vivo activities: CD50” value is listed as 1.25 mg/kg. Also, in the data set on Yoshida ascites sarcoma (lethal dose, rat, Brock, 1976), the “In vivo activities: LD50” value is reported as 150 mg/kg. The D50 Index (LD50/CD50) in the data set with Yoshida ascites sarcoma (therapeutic index, Yoshida ascites sarcoma in rat, Brock, 1976) is 120.

With `NP(=O)(OCCC(=O)O)N(CCCl)CCCl` (stereo not shown), the “activity in the in vitro Yoshida cell cytotoxicity test (in words)” value in data set [1] (comment on Table II) is “virtually inactive”. In data set [1], the “In vitro activities: Cytotoxicity” value is on record as 0.1 CU/μmol. Further, the “activity in vivo against the rat Yoshida ascites sarcoma (in words)” value in the data set on Yoshida ascites sarcoma (comment on Table II) was “virtually inactive”. Also, the “In vivo activities: CD50” value in the data set with Yoshida ascites sarcoma (setting [4]) is 200 mg/kg. For the same molecule, the “toxicity of circulating CPA” value in data set [2] (circulating CPA per se) is reported as “not toxic per se”. For the same molecule, in data set [2] (circulating CPA), the “cell entry of circulating CPA” value is on record as “does not enter cells in significant amounts” and the “extracellular metabolism of circulating CPA” value is “is not metabolized extracellularly”. In data set [2] (via the kidneys), the “excretion of circulating CPA” value is recorded as “normally entirely excreted from the body via the kidneys”. For the same molecule, the “cytotoxicity effects of CPA alone” value in data set [3] is listed as “negligible”.
